Data published in patent publication US20100311717A1, “METHODS AND COMPOSITIONS FOR RETARDING WEIGHT GAIN ASSOCIATED WITH USE OF ATYPICAL ANTIPSYCHOTIC DRUGS” (priority 2007, published 2010).

Settings: human, in vivo

For `Cc1cc2c(s1)Nc1ccccc1N=C2N1CCN(C)CC1` [olanzapine], the weight gained was 20-40 pounds.
